## Binding of CDR-mutated scFvs to a peptide of the spike HR2 region

Values reported by Engelhart et al. 2022, doi:10.1038/s41597-022-01779-4 (FLAb copy).

Target: peptide PDVDLGDISGINAS, taken from heptad repeat 2 (HR2) of SARS-CoV-2 spike.

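Phage display of a naive human antibody library on the peptide gave the parent. Variants in AAYL49 differ from the parent at up to three CDR positions; double and triple changes were sampled at random. The scFvs were displayed on barcoded MATa yeast, the peptide on MATalpha yeast. The frequency of each diploid, read from paired DNA barcodes, reflects how well the two displayed proteins bind. Each replicate has its own calibration line, from reference interactions of the BCL2 family. The assay was run in three technical replicates.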

Parent: Ab-14, a human scFv built as VH, three GGGGS repeats, VL. Only the CDRs of the heavy chain vary.
VH: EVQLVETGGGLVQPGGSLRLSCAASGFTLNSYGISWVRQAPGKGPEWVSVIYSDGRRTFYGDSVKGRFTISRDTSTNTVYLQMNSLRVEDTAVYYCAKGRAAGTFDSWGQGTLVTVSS
VL: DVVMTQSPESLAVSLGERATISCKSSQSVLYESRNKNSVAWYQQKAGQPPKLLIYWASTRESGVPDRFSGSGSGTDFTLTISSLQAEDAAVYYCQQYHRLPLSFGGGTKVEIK

Positions count from residue 1 of the parent VH; G26L puts L in place of G.
Affinities are written as log10 Kd with Kd in nM; a lower number is a better binder.
Averages over replicates are reported, and they cover detected replicates only.
"nd" means that the variant was in the library but no mating with the target was seen in that replicate; the authors take this as a sign of poor binding, and no number exists.
In this assay the parent's reference entry averaged 0.65; its copy inside this library read 4.11 (one replicate of three).

changes,log10 Kd (nM) by replicate,"mean, log10 nM",signal with controls
G26L L29G Y60G,3.85 / nd / nd,3.85,1 of 9 (3.39)
T28Y G55A V64F,6.08 / 4.57 / 4.24,4.97,6 of 9 (4.18)
S35P T58S G103S,3.63 / nd / 4.32,3.97,3 of 9 (4.74)
I34G D54C R56C,nd / nd / nd,nd,2 of 9 (4.49)
Y60E,nd / nd / nd,nd,3 of 9 (4.15)
S31Y R56P R100L,5.42 / nd / nd,5.42,2 of 9 (3.89)
G55L T58M G61K,nd / nd / nd,nd,0 of 9
S31D G55S A101K,nd / nd / nd,nd,0 of 9
L29Y I51G T58Y,nd / nd / nd,nd,0 of 9
F27N S35W F105H,nd / nd / nd,nd,1 of 9 (3.26)
F27K A101V,0.52 / 0.85 / 0.72,0.69,1 of 9 (3.75)
Y52M D54N F105P,4.30 / nd / 6.15,5.23,5 of 9 (4.60)
S53Q F59C R100Q,nd / nd / nd,nd,0 of 9
G26C N30F D54F,nd / nd / nd,nd,0 of 9
S53D D62Y A102E,nd / 3.34 / 3.10,3.22,1 of 9 (2.93)
D62E K65L G103K,nd / nd / nd,nd,0 of 9
Y32V A102R,nd / nd / nd,nd,0 of 9
R56I G99Y,nd / nd / nd,nd,0 of 9
T28C F105G S107Y,3.91 / 3.81 / 4.25,3.99,2 of 9 (4.33)
S63R A101G F105Y,2.06 / 1.88 / 2.00,1.98,3 of 9 (4.23)
T28M N30C,2.05 / 2.53 / 2.32,2.30,0 of 9
G61E G99R G103T,1.84 / 1.76 / 1.81,1.80,1 of 9 (3.07)
L29R N30A V64D,5.50 / nd / 6.16,5.83,3 of 9 (4.33)
S53C R100N A101Y,nd / nd / nd,nd,1 of 9 (2.66)
I34H I51T F105K,nd / nd / 3.61,3.61,1 of 9 (3.22)
T58H A101L D106P,nd / nd / 5.73,5.73,1 of 9 (2.92)
G26L T28I R57M,nd / nd / nd,nd,0 of 9
L29T G61P F105A,nd / nd / nd,nd,2 of 9 (5.42)
S63E G99L S107F,nd / 4.30 / 5.32,4.81,3 of 9 (4.76)
D62E V64P S107F,nd / nd / nd,nd,2 of 9 (2.71)
L29P S31H S35A,nd / 3.96 / nd,3.96,1 of 9 (3.01)
R57H G61D A102F,1.34 / 1.58 / 1.32,1.41,3 of 9 (3.70)
Y32E R57S T104M,nd / nd / nd,nd,0 of 9
G55A R57A A101N,nd / nd / nd,nd,0 of 9
I51R G55A G61T,nd / nd / nd,nd,0 of 9
S53P T58M F105D,nd / nd / nd,nd,0 of 9
S31G Y60L K65G,nd / nd / nd,nd,0 of 9
R57C F59C S107N,nd / nd / nd,nd,1 of 9 (1.96)
S63N G99H S107I,0.42 / 0.51 / 0.63,0.52,1 of 9 (4.09)
G26K S31V G99S,5.54 / 4.48 / nd,5.01,1 of 9 (3.91)
Y52G S53C G99F,nd / nd / nd,nd,3 of 9 (4.06)
I34S S53L R56G,nd / 4.84 / 3.80,4.32,3 of 9 (4.58)
G33V F59L G103V,nd / 2.73 / nd,2.73,0 of 9
L29Q Y60G,nd / nd / nd,nd,0 of 9
R57D R100Q A102Y,6.19 / 3.94 / 5.30,5.14,4 of 9 (4.20)
I34W G61A D62C,nd / 3.81 / nd,3.81,2 of 9 (3.79)
G26N A101F T104C,nd / nd / 5.25,5.25,2 of 9 (5.43)
D54E R56D V64N,nd / nd / nd,nd,1 of 9 (4.59)
G26P T28L V50S,nd / 3.91 / nd,3.91,0 of 9
L29Q D54E G103R,nd / 3.73 / 3.82,3.77,3 of 9 (4.22)
Y52K D54H G103A,nd / nd / nd,nd,1 of 9 (3.22)

Repeated from above, the 7 best binders with a signal in all replicates:

changes,log10 Kd (nM) by replicate,"mean, log10 nM",signal with controls
S63N G99H S107I,0.42 / 0.51 / 0.63,0.52,1 of 9 (4.09)
F27K A101V,0.52 / 0.85 / 0.72,0.69,1 of 9 (3.75)
R57H G61D A102F,1.34 / 1.58 / 1.32,1.41,3 of 9 (3.70)
G61E G99R G103T,1.84 / 1.76 / 1.81,1.80,1 of 9 (3.07)
S63R A101G F105Y,2.06 / 1.88 / 2.00,1.98,3 of 9 (4.23)
T28M N30C,2.05 / 2.53 / 2.32,2.30,0 of 9
T28C F105G S107Y,3.91 / 3.81 / 4.25,3.99,2 of 9 (4.33)

As a blank, each scFv also met three strains without target: over library AAYL49, 15% of these pairings were detected, typically at 4.06 and seldom below 2.83. For each scFv, signals with the empty controls are counted beside the result, with their mean in brackets.